Results reported in article PMC12666569, “The Pseudomonas aeruginosa membrane histidine kinase BqsS/CarS directly senses environmental ferrous iron (Fe^2+)” (The Journal of Biological Chemistry, 2025).

Test system: Nc1ncnc2c1ncn2[C@@H]1O[C@H](COP(=O)(O)OP(=O)(O)OP(=O)(O)O)[C@@H](O)[C@H]1O
Assay: purified protein
Details: 5.0 mM Mg2+, 37 °C, SEC buffer pH 7.5, no added Fe2+

“cytoBqsS (cyto-PaBqsS, cytoPaBqsS) (Pseudomonas aeruginosa PAO1)” showed a Km of 244.34 ± 17.28 µM.
